## Measured affinities in a library of Ab-14 heavy chain variants

Target: peptide PDVDLGDISGINAS, taken from heptad repeat 2 (HR2) of SARS-CoV-2 spike.

Ab-14 is the parent antibody, in scFv form: VH, then three GGGGS repeats, then VL. The light chain is unchanged in all variants.
VH: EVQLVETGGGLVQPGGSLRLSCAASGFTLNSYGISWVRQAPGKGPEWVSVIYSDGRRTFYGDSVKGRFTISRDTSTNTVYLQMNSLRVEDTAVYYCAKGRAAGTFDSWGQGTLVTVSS
VL: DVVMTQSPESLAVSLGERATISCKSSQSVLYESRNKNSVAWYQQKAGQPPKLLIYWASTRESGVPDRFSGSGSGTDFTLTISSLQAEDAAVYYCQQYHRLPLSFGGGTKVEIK

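The starting antibody came from a phage panning campaign against this peptide. The variants were designed computationally from a first round of random CDR variants and then made and measured. Several design methods are mixed in this list. Affinity was read by AlphaSeq, a pooled yeast mating assay with surface-displayed partners. The frequency of each diploid, read from paired DNA barcodes, reflects how well the two displayed proteins bind. Scores were corrected for input abundance and mapped to Kd with protein pairs of known affinity run in the same pool. There are six technical replicates.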

Substitutions are numbered in sequence along the VH above, starting at 1 (not Kabat).
This list holds designs with at most six substitutions.
Each Kd is an estimate from the mating assay, the geometric mean of the replicates in which the pair was seen; lower is stronger.
An entry "nd" has no value in the source: the pair was not observed among the diploids in any replicate. This suggests poor binding but is not conclusive.
Entries are sorted by rising average, undetected variants last.

T28E+S31D+G61D+A101T: 110 pM (6 of 6 replicates).
T28D+S31E+S53A+G61A+R100N+A101V: 350 pM (6 of 6 replicates).
T28V+S31N+S53A+A101T: 590 pM (6 of 6 replicates).
T28D+G61S+A101S: 610 pM (6 of 6 replicates).
G61S+R100M+A101T: 760 pM (6 of 6 replicates).
T28G+S31D+S53A+R100T: 770 pM (6 of 6 replicates).
T28N+G61A+R100S: 1.4 nM (6 of 6 replicates).
T28D+S31E+S53A+G61S+R100N: 1.8 nM (6 of 6 replicates).
S31D+G61A: 1.9 nM (10 of 12 replicates).
T28S+S31E+G61T+S63R: 2.0 nM (6 of 6 replicates).
G26K+S31E+G61S+A101C: 3.2 nM (6 of 6 replicates).
G26H+T28E+G61A+A101V: 3.3 nM (6 of 6 replicates).
T28S+G61V+S63D+A101T: 4.4 nM (6 of 6 replicates).
S63D+R100N+A101T+S107T: 5.1 nM (5 of 6 replicates).
T28G+S31E+G61H+D106W: 5.7 nM (4 of 6 replicates).
F59Q+R100A: 6.2 nM (5 of 6 replicates).
F27V+T28A+S31D+F59A: 6.3 nM (6 of 6 replicates).
T28D+G61I+R100Q+S107R: 7.0 nM (6 of 6 replicates).
F27L+T28N+N30E+G61A: 10 nM (5 of 6 replicates).
G26H+S53A+G61Q: 14 nM (2 of 6 replicates).
T28S+S31E+G61C+R100V+S107R: 15 nM (5 of 6 replicates).
G26Q+F59A+G61I+A101Y: 16 nM (6 of 6 replicates).
L29I+G61S+R100Q: 21 nM (5 of 6 replicates).
G26S+T28S+S31E+A101T: 24 nM (2 of 6 replicates).
T28D+G61T+A101L+T104G+F105Y: 47 nM (1 of 6 replicates).
G61Q+A101V: 66 nM (6 of 6 replicates).
F105T+S107T: 83 nM (4 of 6 replicates).
G61I+A101V+D106W: 180 nM (4 of 6 replicates).
F27D+G99T: 210 nM (1 of 6 replicates).
L29A+G61D+R100Q+A101L: 340 nM (2 of 6 replicates).
T28S+G61I+R100H+S107N: 370 nM (3 of 6 replicates).
T28E+R100Q+A101I: nd (0 of 6 replicates).
N30E+G61M+R100Q+A101G: nd (0 of 6 replicates).
F27N+A101L+D106P: nd (0 of 6 replicates).
G61Q+V64F: nd (0 of 6 replicates).
S31D+G61I+A101H+D106W: nd (0 of 6 replicates).
R57E+G61S+A102G: nd (0 of 6 replicates).
F27Y+F59V: nd (0 of 6 replicates).
Y52K+G61D+R100Q+A101L: nd (0 of 6 replicates).
T58L+K65R: nd (0 of 6 replicates).
R56C+G103L+T104V: nd (0 of 6 replicates).
T28D+G103V: nd (0 of 6 replicates).
G103F+T104R+S107L: nd (0 of 6 replicates).
G26Y+Y32K+G55M+G61S+G99M+A102G: nd (0 of 6 replicates).
N30L+G61Q+A102K: nd (0 of 6 replicates).
S31D+F59W+G61I+D106I: nd (0 of 6 replicates).

Picked from the list: the 8 lowest averages where every replicate gave a value.

changes,Kd (apparent),seen in
T28E+S31D+G61D+A101T,110 pM,6/6
T28D+S31E+S53A+G61A+R100N+A101V,350 pM,6/6
T28V+S31N+S53A+A101T,590 pM,6/6
T28D+G61S+A101S,610 pM,6/6
G61S+R100M+A101T,760 pM,6/6
T28G+S31D+S53A+R100T,770 pM,6/6
T28N+G61A+R100S,1.4 nM,6/6
T28D+S31E+S53A+G61S+R100N,1.8 nM,6/6

The range of this assay differs from that of the first round, and the authors advise against merging the two.
Some sequences occur more than once in the pool; their replicates are pooled.
The authors' rule: three or more of the six replicates give a measured affinity, fewer mean a poor binder.
Empty control strains, which show no peptide, gave a signal in 1% of pairings with all heavy chain designs; the median was 120 nM and 95% of these signals were weaker than 7.0 nM. No background was subtracted.

From the AlphaSeq antibody data of Li et al. 2023 (doi:10.1038/s41467-023-39022-2), copy in the FLAb collection.